From paper PMC9920567, “Discovery of Bis-Imidazoline Derivatives as New CXCR4 Ligands” (Molecules, 2023)

Amino acid sequences for entries named in this document (tags omitted).
UniProt P61073, whole entry: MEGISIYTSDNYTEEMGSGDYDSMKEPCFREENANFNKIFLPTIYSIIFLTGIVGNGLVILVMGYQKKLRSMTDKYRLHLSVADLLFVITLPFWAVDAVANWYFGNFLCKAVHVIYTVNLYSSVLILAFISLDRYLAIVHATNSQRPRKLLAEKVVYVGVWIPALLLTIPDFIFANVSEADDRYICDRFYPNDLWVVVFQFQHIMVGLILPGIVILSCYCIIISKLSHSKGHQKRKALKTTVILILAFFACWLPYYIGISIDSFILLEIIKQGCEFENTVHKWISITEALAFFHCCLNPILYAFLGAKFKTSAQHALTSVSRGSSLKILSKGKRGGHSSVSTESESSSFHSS
UniProt P51681, whole entry: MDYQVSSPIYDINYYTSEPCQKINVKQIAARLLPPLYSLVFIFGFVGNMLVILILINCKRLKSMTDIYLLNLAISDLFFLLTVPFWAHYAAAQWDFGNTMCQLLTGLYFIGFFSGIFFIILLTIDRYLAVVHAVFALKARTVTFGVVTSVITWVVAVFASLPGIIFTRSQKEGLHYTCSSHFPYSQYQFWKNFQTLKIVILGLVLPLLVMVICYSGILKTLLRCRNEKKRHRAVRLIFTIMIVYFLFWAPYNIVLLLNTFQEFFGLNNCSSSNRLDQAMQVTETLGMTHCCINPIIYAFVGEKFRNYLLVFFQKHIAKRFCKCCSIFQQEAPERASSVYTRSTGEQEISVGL

Columns and labels:
CXCR4 [1] = biological target: T1, CXCR4 (Homo sapiens, UniProt P61073); test: anti-CXCR4 mAb 12G5 binding (saturation and competition) to A3.01 cells, flow cytometry; settings: mAb 12G5 as tracer
CXCR4 [2] = biological target: T1, CXCR4; test: Inhibition of CXCL12-induced chemotaxis (transwell); format: cell-based; settings: read-out: inhibitory efficacy on chemotaxis induced by 10 nM CXCL12; A3.01R5 cells, 10 µM compound in upper and lower chambers
Procedure: (§1) We next investigated whether the bis-imidazoline compounds act as CXCR4 agonists or antagonists.
(§2) Cells (1.5 × 10^5) in prewarmed RPMI-1640 medium supplemented with 20 mM HEPES and 1% human serum AB were added to the top chambers of HTS-Transwell-96 Well Permeable Supports with polycarbonate membrane of 5 μm pore size (Corning, New York, USA). […] Cells were allowed to migrate for 5 h at 37 °C in humidified air with 5% CO2. The number of cells migrating across the polycarbonate membrane was then assessed by flow cytometry with a FACS CantoII (BD Biosciences).
Figure 2 Bis-imidazoline compounds behave as specific CXCR4 antagonists. […] Results (means ± SEM of technical duplicates) were normalized for nonspecific binding (0%) and specific binding in the absence of competitors (B0, 100%) and were fitted to a one-site competitive binding model. A representative experiment out of five independent experiments is shown. […] Results represent the number of cells that migrated from the upper to the lower chamber of a transwell system. The number of cells that migrated in response to bis-imidazolines was similar to spontaneous migration. The number of input cells was 1.5 × 10^5. A representative experiment out of four is shown. […] Means ± SD of three experiments performed in duplicate are shown. The black dots represent the different replicates. […] Results represent the proportion of viable cells among all the cells. Cells were incubated ON at 37 °C in the presence or absence of 10 μM of the indicated molecules. A representative experiment out of two is shown. […] Experiments were performed as in (D) in the presence of 3 nM of the CCR5 agonist PSC-CCL5 placed in the lower chamber.

CCR5 = CCR5 (Homo sapiens, UniProt P51681); test: Inhibition of PSC-CCL5-induced, CCR5-dependent chemotaxis of A3.01R5 cells; format: cell-based; settings: 3 nM PSC-CCL5, 10 µM compound
Procedure: as §1, §2
Figure 2 Bis-imidazoline compounds behave as specific CXCR4 antagonists. […] Results (means ± SEM of technical duplicates) were normalized for nonspecific binding (0%) and specific binding in the absence of competitors (B0, 100%) and were fitted to a one-site competitive binding model. A representative experiment out of five independent experiments is shown. […] Results represent the number of cells that migrated from the upper to the lower chamber of a transwell system. The number of cells that migrated in response to bis-imidazolines was similar to spontaneous migration. The number of input cells was 1.5 × 10^5. A representative experiment out of four is shown. […] Means ± SD of three experiments performed in duplicate are shown. The black dots represent the different replicates. […]

Row | SMILES | IC50 (CXCR4 [1]) [µM] | inhibition at 10 µM (CXCR4 [2]) [%] | decrease of migration induced by CCR5 agonist PSC-RANTES/CCL5 (CCR5)
1 | C(CCCCCNC1=NCCN1)CCCCCNC1=NCCN1 [mr34200] | 4.23 ± 1.6 |  | 
2 | C(CCCCCNC1=NCCN1)CCCCNC1=NCCN1 [mr20349] | 1.28 ± 0.8 | 53 | 
3 | C(CCCCCCNC1=NCCN1)CCCCCNC1=NCCN1 [mr20350] | 1.8 ± 1.03 | 75 | only slightly
4 | C(CCCCNC1=NCCN1)CCCCNC1=NCCN1 [mr20348] | 1.88 ± 0.18 |  | 
5 | C(CCCCNC1=NCCN1)CCCNC1=NCCN1 [mr20347] | 2.64 ± 0.34 | 92 | 
